Measured affinities in a library of Ab-14 heavy chain variants

The measurements come from Li et al. 2023 (doi:10.1038/s41467-023-39022-2) through the FLAb antibody collection.

Target: peptide PDVDLGDISGINAS, taken from heptad repeat 2 (HR2) of SARS-CoV-2 spike.

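The parent was found by panning a naive human phage display library on the peptide. These sequences belong to a second round, designed from the earlier measurements on random variants of the parent. Group labels follow the data file (Ctrl: baseline library sampled from a position-specific scoring matrix, with some repeated check sequences; Rand: our label for a block that the file lists under HC and that is probably the random mutants of the ten best first-round binders; GP: Gaussian process model; GPLM: also part of the Gaussian process libraries; HC: hill climbing; Gen: genetic algorithm; Gibbs: Gibbs sampling; a sequence that several methods proposed may carry one label only). In AlphaSeq, yeast of one mating type display the scFv and yeast of the other type display the target. Binding brings cells together so that they mate, and sequencing counts the barcode pairs among the diploids. A regression on co-assayed BCL2-family reference pairs converts the normalised counts of each replicate to an apparent Kd. Mating was done six times.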

The variants keep the light chain, the linker and the frameworks of Ab-14 (scFv order VH, three GGGGS repeats, VL).
VH: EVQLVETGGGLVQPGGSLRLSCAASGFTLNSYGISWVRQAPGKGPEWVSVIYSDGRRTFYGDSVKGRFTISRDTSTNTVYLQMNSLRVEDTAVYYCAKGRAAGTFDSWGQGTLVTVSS
VL: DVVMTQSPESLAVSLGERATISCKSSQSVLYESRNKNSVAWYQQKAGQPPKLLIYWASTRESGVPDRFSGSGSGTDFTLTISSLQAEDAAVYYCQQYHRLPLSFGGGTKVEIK

Substitutions are numbered in sequence along the VH above, starting at 1 (not Kabat). Variants here have at most six changes. Each Kd is an estimate from the mating assay, the geometric mean of the replicates in which the pair was seen; lower is stronger. Where no diploid with the target was found in any replicate, the entry reads "no signal": below detection, most likely a poor binder, though not proof of it. Nonspecific signal, from three strains lacking the peptide, appeared in 1% of pairings of all heavy chain designs, centred on 120 nM (5% of these signals below 7.0 nM); values are not corrected for it. The range of this assay differs from that of the first round, and the authors advise against merging the two. Of ten entries with the parent sequence, four were seen in most replicates (averages 2.2 nM to 240 nM), three in one and three in none, so single entries are noisy. The authors' rule: three or more of the six replicates give a measured affinity, fewer mean a poor binder.

Variant T28V/S31D/I51L/G103L/T104D/D106I [Rand] gave 45 nM (1 of 6 replicates). For N30L/V64T/A102S/G103L [Ctrl], the assay gave 52 nM (6 of 6 replicates). Variant S31Q/S53A/G61E/S107D [Ctrl] showed 1.2 nM (6 of 6 replicates). Variant G26E/N30E/S53A/D106K [GP_HC] gave 4.5 nM (3 of 6 replicates). Variant D106F/S107M [Ctrl] gave no signal (0 of 6 replicates).

Variant F27L/T28A/G61Y/S63D/K65S/R100A [Ctrl] gave no signal (0 of 6 replicates). Variant F27Q/S31E/G61V/T104G [Ctrl] gave no signal (0 of 6 replicates). Variant T28S/S63R/R100Q/A101I [GP_Gibbs] showed 3.7 nM (6 of 6 replicates). Variant G26A/S31I/Y52S/F59Q/G61I/G103N [Rand] showed no signal (0 of 6 replicates). Variant T28E/S31D/G61C/A101T/S107T [GP_Gibbs] gave 3.4 nM (6 of 6 replicates).

For T28H/G61A/A101N [GP_Gen], the assay gave 5.6 nM (6 of 6 replicates). Variant G26H/T28S/F59A/A101T [GP_Gibbs] showed 4.1 nM (5 of 6 replicates). Variant R100N/A101E/S107T [GPLM_Gen] gave 58 nM (6 of 6 replicates). For T28S/S31D/A101T/S107G [GPLM_Gen], the assay gave 1.1 nM (6 of 6 replicates). With F27Y/A101E [Ctrl] the result was 71 nM (4 of 6 replicates).

For G103C/D106S [Ctrl], the assay gave no signal (0 of 6 replicates). Variant T28S/G61S/R100Q/A102G [GPLM_HC] showed no signal (0 of 6 replicates). With G26K/T28Q/S31E/A101T/S107T [GP_Gen] the result was 19 nM (6 of 6 replicates). Variant T28D/S31D/A101G/D106R [Ctrl] gave 6.0 nM (6 of 6 replicates). For T28D/G61S/R100S [GP_Gen], the assay gave 1.6 nM (6 of 6 replicates).

For G26V/S53A/F59A/V64Y [Ctrl], the assay gave no signal (0 of 6 replicates). For G33S/G61S/K65D/T104Y [Ctrl], the assay gave no signal (0 of 6 replicates). For T28S/G61V/R100S [GPLM_Gen], the assay gave 3.1 nM (5 of 6 replicates). Variant T28Q/G61Q/S63K/A101T [GPLM_Gibbs] gave 35 nM (6 of 6 replicates). For T28S/S31E/S53A/S107Q [GP_HC], the assay gave 2.5 nM (6 of 6 replicates).

With S63D/S107A [Ctrl] the result was 72 nM (2 of 6 replicates). For T28S/S31E/R56K [GPLM_Gen], the assay gave 1.1 nM (6 of 6 replicates). Variant I34H/I51K/S53A/F105N/D106K [Rand] showed no signal (0 of 6 replicates). For T28D/R57K/A101T [GPLM_HC], the assay gave 2.1 nM (6 of 6 replicates). For G26K/T28E/G61A/R100Q/A101T [GP_Gen], the assay gave 4.2 nM (2 of 6 replicates).

For S31E/F59A/A101V [Ctrl], the assay gave 270 pM (6 of 6 replicates). Variant T28G/L29V/V64F/K65S/R100Q/F105P [Ctrl] gave no signal (0 of 6 replicates). Variant G61D/S63N/R100Q/A101T [GP_HC] gave 22 nM (6 of 6 replicates). For G26D/S31D/F59Q/G61I/A101I/T104C [Rand], the assay gave 130 nM (1 of 6 replicates). For T28W/S31D/S107I [GP_HC], the assay gave 18 nM (6 of 6 replicates).

Variant L29V/G61N [Ctrl] showed no signal (0 of 6 replicates). For G61S/R100K/A101V/S107T [GP_Gen], the assay gave 2.5 nM (6 of 6 replicates). With T28W/S31E/R100T [GP_Gen] the result was 14 nM (5 of 6 replicates). Variant T28D/A101E/S107E [GP_Gen] gave 1.6 nM (6 of 6 replicates). With T28S/S31Q/G61S/A101L/S107T [GP_HC] the result was 2.0 nM (5 of 6 replicates).

With S31E/A101S/S107K [GP_Gen] the result was 31 nM (6 of 6 replicates). Variant S31Q/G61S/R100E [GPLM_HC] showed 640 pM (6 of 6 replicates). For S31D/F59M/G61M/A101R [GP_HC], the assay gave 22 nM (2 of 6 replicates).

The 3 strongest on average among those seen in every replicate, once more:

changes	group	apparent Kd	replicates with signal
S31E/F59A/A101V	Ctrl	270 pM	6 of 6
S31Q/G61S/R100E	GPLM_HC	640 pM	6 of 6
T28S/S31D/A101T/S107G	GPLM_Gen	1.1 nM	6 of 6